Experimental data as given in IntAct's records for PubMed 35512704.

B1: RAC-alpha serine/threonine-protein kinase (Homo sapiens), P31749 (parent)
chain: MSDVAIVKEGWLHKRGEYIKTWRPRYFLLKNDGTFIGYKERPQDVDQREAPLNNFSVAQCQLMKTERPRPNTFIIRCLQWTTVIERTFHVETPEEREEWTTAIQTVADGLKKQEEEEMDFRSGSPSDNSGAEEMEVSLAKPKHRVTMNEFEYLKLLGKGTFGKVILVKEKATGRYYAMKILKKEVIVAKDEVAHTLTENRVLQNSRHPFLTALKYSFQTHDRLCFVMEYANGGELFFHLSRERVFSEDRARFYGAEIVSALDYLHSEKNVVYRDLKLENLMLDKDGHIKITDFGLCKEGIKDGATMKTFCGTPEYLAPEVLEDNDYGRAVDWWGLGVVMYEMMCGRLPFYNQDHEKLFELILMEEIRFPRTLGPEAKSLLSGLLKKDPKQRLGGGSEDAKEIMQHRFFAGIVWQHVYEKKLSPPFKPQVTSETDTRYFDEEFTAQMITITPPDQDDSMECVDSERRPHFPQFSYSASGTA
partner: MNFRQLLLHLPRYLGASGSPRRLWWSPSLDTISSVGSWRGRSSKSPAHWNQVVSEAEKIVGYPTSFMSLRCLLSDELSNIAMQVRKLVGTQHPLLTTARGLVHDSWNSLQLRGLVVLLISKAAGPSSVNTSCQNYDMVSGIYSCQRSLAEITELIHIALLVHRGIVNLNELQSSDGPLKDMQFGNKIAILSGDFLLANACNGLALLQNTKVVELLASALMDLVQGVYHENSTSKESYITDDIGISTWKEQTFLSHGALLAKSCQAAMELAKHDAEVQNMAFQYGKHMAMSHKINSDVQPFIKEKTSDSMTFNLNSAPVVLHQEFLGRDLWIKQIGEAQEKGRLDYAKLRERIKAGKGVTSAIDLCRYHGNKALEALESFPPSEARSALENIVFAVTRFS
B2: RAC-alpha serine/threonine-protein kinase (Homo sapiens), P31749 (parent)
chain: B1 chain
partner: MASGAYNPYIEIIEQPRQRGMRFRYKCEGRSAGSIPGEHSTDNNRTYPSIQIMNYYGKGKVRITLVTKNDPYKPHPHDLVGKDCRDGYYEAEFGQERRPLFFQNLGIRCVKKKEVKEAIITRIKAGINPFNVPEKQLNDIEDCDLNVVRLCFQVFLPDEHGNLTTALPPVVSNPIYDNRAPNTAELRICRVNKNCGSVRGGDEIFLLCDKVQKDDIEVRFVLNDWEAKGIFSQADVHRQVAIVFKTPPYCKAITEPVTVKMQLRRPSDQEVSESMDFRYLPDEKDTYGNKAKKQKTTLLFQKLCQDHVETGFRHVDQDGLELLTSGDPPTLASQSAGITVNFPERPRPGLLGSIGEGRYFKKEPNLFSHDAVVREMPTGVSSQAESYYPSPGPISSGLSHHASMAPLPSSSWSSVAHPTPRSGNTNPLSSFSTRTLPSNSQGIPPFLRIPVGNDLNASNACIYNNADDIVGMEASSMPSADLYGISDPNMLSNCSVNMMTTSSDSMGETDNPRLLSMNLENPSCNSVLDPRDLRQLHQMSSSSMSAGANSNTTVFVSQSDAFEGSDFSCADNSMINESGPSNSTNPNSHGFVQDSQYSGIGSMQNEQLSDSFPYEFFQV
B3: RAC-alpha serine/threonine-protein kinase (Homo sapiens), P31749 (parent)
chain: B1 chain
partner: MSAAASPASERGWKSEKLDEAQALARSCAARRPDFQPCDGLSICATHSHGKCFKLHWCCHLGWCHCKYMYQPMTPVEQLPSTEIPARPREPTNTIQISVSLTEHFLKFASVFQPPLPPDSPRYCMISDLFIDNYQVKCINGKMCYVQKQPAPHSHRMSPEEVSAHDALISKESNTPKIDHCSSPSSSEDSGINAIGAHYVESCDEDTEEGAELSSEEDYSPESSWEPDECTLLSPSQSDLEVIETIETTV
B4: RAC-alpha serine/threonine-protein kinase (Homo sapiens), P31749 (parent)
chain: B1 chain
partner: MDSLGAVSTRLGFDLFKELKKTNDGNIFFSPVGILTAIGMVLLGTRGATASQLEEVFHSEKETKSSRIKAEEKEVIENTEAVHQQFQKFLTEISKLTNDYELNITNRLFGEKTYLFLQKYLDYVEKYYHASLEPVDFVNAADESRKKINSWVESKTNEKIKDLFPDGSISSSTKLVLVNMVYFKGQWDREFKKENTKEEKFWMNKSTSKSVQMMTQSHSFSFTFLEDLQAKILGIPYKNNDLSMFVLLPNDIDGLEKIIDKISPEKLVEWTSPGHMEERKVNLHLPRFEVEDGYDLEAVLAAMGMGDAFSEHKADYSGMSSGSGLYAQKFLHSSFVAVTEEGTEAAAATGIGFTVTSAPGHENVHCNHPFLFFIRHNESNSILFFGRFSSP
B5: RAC-alpha serine/threonine-protein kinase (Homo sapiens), P31749 (parent)
chain: B1 chain
partner: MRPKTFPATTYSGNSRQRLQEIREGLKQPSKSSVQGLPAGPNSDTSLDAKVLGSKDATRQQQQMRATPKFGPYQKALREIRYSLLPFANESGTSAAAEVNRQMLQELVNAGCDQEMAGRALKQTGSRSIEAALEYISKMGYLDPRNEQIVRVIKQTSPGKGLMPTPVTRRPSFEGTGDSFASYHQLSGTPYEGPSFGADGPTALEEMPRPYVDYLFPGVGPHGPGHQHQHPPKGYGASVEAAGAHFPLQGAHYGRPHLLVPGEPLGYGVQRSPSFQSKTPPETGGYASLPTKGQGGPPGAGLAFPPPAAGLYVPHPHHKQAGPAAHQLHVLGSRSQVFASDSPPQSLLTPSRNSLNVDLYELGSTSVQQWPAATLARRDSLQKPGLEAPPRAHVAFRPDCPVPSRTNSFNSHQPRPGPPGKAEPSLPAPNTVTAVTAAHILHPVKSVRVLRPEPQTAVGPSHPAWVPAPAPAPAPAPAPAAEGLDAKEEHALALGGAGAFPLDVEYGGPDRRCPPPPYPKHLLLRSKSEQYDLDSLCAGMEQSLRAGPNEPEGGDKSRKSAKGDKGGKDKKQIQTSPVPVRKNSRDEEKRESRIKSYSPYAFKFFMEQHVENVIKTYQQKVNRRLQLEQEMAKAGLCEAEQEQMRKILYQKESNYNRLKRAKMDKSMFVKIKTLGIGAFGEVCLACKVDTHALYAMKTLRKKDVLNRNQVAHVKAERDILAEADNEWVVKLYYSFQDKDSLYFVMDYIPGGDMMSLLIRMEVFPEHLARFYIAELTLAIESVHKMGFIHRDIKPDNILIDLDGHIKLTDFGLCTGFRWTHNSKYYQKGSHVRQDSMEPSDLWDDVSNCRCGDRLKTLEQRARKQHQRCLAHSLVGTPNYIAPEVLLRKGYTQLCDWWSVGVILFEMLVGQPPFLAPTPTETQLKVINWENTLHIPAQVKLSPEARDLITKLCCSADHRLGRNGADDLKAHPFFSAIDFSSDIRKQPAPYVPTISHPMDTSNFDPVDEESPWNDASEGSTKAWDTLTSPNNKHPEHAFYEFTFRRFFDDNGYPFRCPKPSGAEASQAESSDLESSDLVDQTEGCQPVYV
B6: RAC-alpha serine/threonine-protein kinase (Homo sapiens), P31749 (parent)
chain: B1 chain
partner: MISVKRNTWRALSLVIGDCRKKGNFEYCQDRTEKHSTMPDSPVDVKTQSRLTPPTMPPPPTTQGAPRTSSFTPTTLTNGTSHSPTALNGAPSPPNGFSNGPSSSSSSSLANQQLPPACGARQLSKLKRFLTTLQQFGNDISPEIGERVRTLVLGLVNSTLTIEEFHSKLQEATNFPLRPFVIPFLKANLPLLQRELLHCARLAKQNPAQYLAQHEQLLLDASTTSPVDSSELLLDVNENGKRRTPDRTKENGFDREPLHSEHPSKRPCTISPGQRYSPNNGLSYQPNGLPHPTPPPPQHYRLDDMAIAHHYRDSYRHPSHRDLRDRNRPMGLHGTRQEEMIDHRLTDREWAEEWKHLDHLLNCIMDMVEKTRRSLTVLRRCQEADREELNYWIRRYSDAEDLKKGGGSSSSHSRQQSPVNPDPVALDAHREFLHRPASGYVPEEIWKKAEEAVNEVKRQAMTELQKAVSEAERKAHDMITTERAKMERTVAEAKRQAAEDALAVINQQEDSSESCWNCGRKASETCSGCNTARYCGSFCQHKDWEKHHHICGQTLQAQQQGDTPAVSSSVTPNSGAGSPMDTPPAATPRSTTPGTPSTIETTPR

Variants of: B1
Conditions: with dlp1_human PDSS2, Q86YH6

Variant | effect of a mutation on the interaction
E17K | with no effect

Variants of: B2
Conditions: with rel_human REL

Variant | effect of a mutation on the interaction
E17K | with no effect

Variants of: B3
Conditions: with cc070_human C3orf70, A6NLC5

Variant | effect of a mutation on the interaction
E17K | with no effect

Variants of: B4
Conditions: with spb13_human SERPINB13, Q9UIV8

Variant | effect of a mutation on the interaction
E17K | with no effect

Variants of: B5
Conditions: with lats2_human LATS2, Q9NRM7

Variant | effect of a mutation on the interaction
E17K | with no effect

Variants of: B6
Conditions: with mtg8_human RUNX1T1, Q06455

Variant | effect of a mutation on the interaction
E17K | with no effect
